{"source": "patent US6162875A", "about": "“Low nitrosamine systems for rubber vulcanization” (Robinson Brothers Limited, priority 1992, dated 2000)", "key": {"TA 100": {"tested_on": "TA 100", "assay": "Test to check the mutability of the bacterial strains, TA 100", "conditions": "5.0 μg/plate, without metabolic activation"}, "TA 1535": {"tested_on": "TA 1535", "assay": "Test to check the mutability of the bacterial strains, TA 1535", "conditions": "5.0 μg/plate, without metabolic activation"}}, "data": [{"smiles": "CCN(N=O)C(=N)N[N+](=O)[O-]", "values": [{"measurement": "mutagenic to TA 100", "setting": "TA 100", "value": "weakly mutagenic"}, {"measurement": "mutagenic to TA 1535", "setting": "TA 1535", "value": "weakly mutagenic"}]}]}
